AlphaSeq binding of Ab-91 heavy chain variants to a spike HR2 peptide

The target is the same throughout: PDVDLGDISGINAS, from the HR2 region of SARS-CoV-2 spike.

The variants keep the light chain, the linker and the frameworks of Ab-91 (scFv order VL, a (GGGGS)3 linker, VH).
VL: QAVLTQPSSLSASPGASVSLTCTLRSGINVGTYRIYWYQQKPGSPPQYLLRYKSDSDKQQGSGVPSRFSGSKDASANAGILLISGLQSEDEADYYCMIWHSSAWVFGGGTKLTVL
VH: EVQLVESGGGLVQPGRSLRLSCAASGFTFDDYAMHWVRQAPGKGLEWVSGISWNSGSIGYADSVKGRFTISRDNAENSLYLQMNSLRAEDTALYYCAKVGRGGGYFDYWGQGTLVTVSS

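AAYL51 was designed without a model: most single CDR substitutions and a random sample of double and triple ones. In AlphaSeq, yeast of one mating type display the scFv and yeast of the other type display the target. Binding brings cells together so that they mate, and sequencing counts the barcode pairs among the diploids. A regression on co-assayed BCL2-family reference pairs converts the normalised counts of each replicate to an apparent Kd. Each pool was mated in three replicate cultures.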

Changes read parent residue, position, new residue, counted from the first residue of the VH shown.
This list gathers variants with a substitution at I51 (VH, numbered from residue 1).
Each Kd is an estimate from the mating assay, the geometric mean of the replicates in which the pair was seen; lower is stronger.
"nd" means that the variant was in the library but no mating with the target was seen in any replicate; the authors take this as a sign of poor binding, and no number exists.
Nonspecific signal, from three strains lacking the peptide, appeared in 21% of pairings of library AAYL51, centred on 34 µM (5% of these signals below 1.8 µM); values are not corrected for it.

Variant F27E Y32M I51D gave 250 µM (2 of 3 replicates).
Variant A33R I51C gave 180 µM (3 of 3 replicates).
Variant I51T S63K G102Q gave 390 µM (1 of 3 replicates).
Variant H35A I51H A61F gave 87 µM (1 of 3 replicates).
Variant I51C A61D G104V gave nd (0 of 3 replicates).
Variant I51S I58H S63G gave 93 µM (3 of 3 replicates).
Variant F29I I51N G59S gave 2.4 mM (2 of 3 replicates).
Variant I51W Y105M D107L gave 67 µM (2 of 3 replicates).
Variant I51Q R101N Y108E gave nd (0 of 3 replicates).
Variant D30L I51W S52H gave 100 µM (3 of 3 replicates).
Variant I51E S55K G103P gave nd (0 of 3 replicates).
Variant T28K I51T V64P gave 78 µM (2 of 3 replicates).
Variant G26A H35L I51K gave 48 µM (2 of 3 replicates).
Variant F29C I51R I58F gave nd (0 of 3 replicates).
Variant I51C S57C A61C gave nd (0 of 3 replicates).
Variant I51K S52F gave nd (0 of 3 replicates).
Variant I51T G56R I58Y gave 1.2 mM (2 of 3 replicates).
Variant I51P S63E D107M gave nd (0 of 3 replicates).
Variant I51T G103R gave nd (0 of 3 replicates).
Variant I51T S52F G102T gave nd (0 of 3 replicates).
Variant I51P G56V S57P gave 200 µM (2 of 3 replicates).
Variant I51K Y60R A61T gave 18 µM (1 of 3 replicates).
Variant I51H S63C gave nd (0 of 3 replicates).
Variant I51V gave nd (0 of 3 replicates).
Variant I51T G100E gave nd (0 of 3 replicates).
Variant I51H V99P R101E gave 81 µM (1 of 3 replicates).
Variant A33H I51E G103M gave 100 µM (1 of 3 replicates).
Variant I51H S52W G104S gave 220 µM (2 of 3 replicates).
Variant G50C I51L D62C gave 10 µM (1 of 3 replicates).
Variant F29A I51F gave nd (0 of 3 replicates).
Variant A33W I51L G102N gave 510 µM (2 of 3 replicates).
Variant I51S N54L G59Q gave nd (0 of 3 replicates).
Variant I51C G59V D107K gave nd (0 of 3 replicates).
Variant D31A I51N R101C gave nd (0 of 3 replicates).
Variant I51M G59R Y105L gave nd (0 of 3 replicates).
Variant I51F K65N D107Q gave nd (0 of 3 replicates).
Variant I51L S57F G100Q gave 15 µM (3 of 3 replicates).
Variant H35I I51V K65Q gave 86 µM (3 of 3 replicates).
Variant I51W S55H Y105D gave nd (0 of 3 replicates).
Variant M34H I51E R101C gave nd (0 of 3 replicates).
Variant Y32D I51H G100E gave nd (0 of 3 replicates).
Variant I51M S55Y V64G gave 500 µM (1 of 3 replicates).
Variant I51T V99H G100V gave 74 µM (2 of 3 replicates).
Variant F27H I51G V99C gave nd (0 of 3 replicates).
Variant I51S A61P G102T gave 84 µM (2 of 3 replicates).

Reference: Engelhart et al. 2022, doi:10.1038/s41597-022-01779-4. File: FLAb, binding data.